Data from patent US5756537A (Parkash S. Gill, M.D., Inc., priority 1996, dated 1998).

Tests used:
[1] = tested on: Kaposi's sarcoma; assay: Example 3: HIV-negative person with KS; format: in vivo, human; conditions: HCG 5000 international units daily subcutaneously
From the text: Patient, a very fragile person presented with KS. Apparently the first site of disease was on the right foot with subsequent disease progression to all extremities, trunk, oral cavity, ears, eye lids, and genital organs. They also developed extensive edema of both lower extremities from KS. Other medical problems included hypertension, cardiac arrhythmia, congestive heart failure, and hypothyroidism.
Prior therapy included radiation therapy. The radiated areas included both feet and eye lids. […] Furthermore, KS continued to progress at various sites. Cytotoxic chemotherapy was given with combination chemotherapy consisting of bleomycin, vincristine and adriamycin.
On their insistence, they were first treated with human chorionic gonadotropin (HCG) at a dose of 5000 international units daily subcutaneously. […] The tumor was very extensive and had extensive oozing including blood stained material, which was foul smelling, from the extremities. In addition, they had nodular pedunculated lesions over extensive regions of the body. […] Premedication included dexamethasone, diphenhydramine, and cimetidine.
The tumor resolved completely after five doses of paclitaxel in a period of eight weeks. […] The patient subsequently developed eczema of the legs was treated with local therapy with partial response. […]

[2] = tested on: Kaposi's sarcoma; assay: Example 4: person with KS; format: in vivo, human; conditions: intralesional HCG and topical cream of Vit D3 (Dovonex)
Protocol: The patient had extensive cutaneous KS with numerous tumor lesions. The patient had been treated with local therapy including laser therapy. As a result, they had numerous ulcerated tumor lesions. The patient was in severe pain and expressed a desire not to live.
Due to the lack of effective control of the extensive disease with local therapies, they were treated with liposomal daunorubicin (Doxil). […] There was no evidence of new lesions and the existing lesions regressed rapidly. They wished to stop therapy in order to avoid treatment related toxicity. […] They were thus retreated with Doxil, with the expectation that the tumors would respond again.
Due to very extensive disease, a representative area of tumor was monitored.

## HCG: human chorionic gonadotropin (HCG)
[1]
  response to therapy: no response
[2]
  response: limited local response but progressive systemic KS
